From ChEMBL document CHEMBL6182862, “Discovery of novel azetidine-based imidazopyridines as selective and orally bioavailable inhibitors of phosphodiesterase 10A for the treatment of pulmonary arterial hypertension” (Eur J Med Chem, 2025)

The chains behind the UniProt entries cited, without tags or fusion partners. Where a name states a change or a piece, a line headed by the entry shows the natural chain unless it says otherwise.
UniProt O60658: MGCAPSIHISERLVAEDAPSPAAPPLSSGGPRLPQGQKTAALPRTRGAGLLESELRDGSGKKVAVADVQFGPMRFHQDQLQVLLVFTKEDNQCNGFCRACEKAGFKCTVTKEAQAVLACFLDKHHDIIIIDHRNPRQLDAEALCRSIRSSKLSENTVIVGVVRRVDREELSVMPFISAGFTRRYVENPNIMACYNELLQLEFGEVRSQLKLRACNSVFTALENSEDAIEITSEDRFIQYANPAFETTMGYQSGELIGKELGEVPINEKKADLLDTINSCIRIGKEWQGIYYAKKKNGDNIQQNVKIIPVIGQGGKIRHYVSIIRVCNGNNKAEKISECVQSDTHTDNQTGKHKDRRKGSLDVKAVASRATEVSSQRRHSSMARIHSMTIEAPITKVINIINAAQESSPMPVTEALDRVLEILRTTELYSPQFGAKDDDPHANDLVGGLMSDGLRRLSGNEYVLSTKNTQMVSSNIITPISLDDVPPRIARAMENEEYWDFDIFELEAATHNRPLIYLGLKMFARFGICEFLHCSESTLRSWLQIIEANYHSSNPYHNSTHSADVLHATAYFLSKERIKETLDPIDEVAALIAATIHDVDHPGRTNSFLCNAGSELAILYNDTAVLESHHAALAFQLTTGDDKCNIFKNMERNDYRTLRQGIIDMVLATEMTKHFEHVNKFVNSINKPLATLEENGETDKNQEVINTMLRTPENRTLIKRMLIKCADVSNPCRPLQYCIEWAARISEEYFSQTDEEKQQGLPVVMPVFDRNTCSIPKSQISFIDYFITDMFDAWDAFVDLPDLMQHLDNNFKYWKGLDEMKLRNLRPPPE
UniProt Q14432: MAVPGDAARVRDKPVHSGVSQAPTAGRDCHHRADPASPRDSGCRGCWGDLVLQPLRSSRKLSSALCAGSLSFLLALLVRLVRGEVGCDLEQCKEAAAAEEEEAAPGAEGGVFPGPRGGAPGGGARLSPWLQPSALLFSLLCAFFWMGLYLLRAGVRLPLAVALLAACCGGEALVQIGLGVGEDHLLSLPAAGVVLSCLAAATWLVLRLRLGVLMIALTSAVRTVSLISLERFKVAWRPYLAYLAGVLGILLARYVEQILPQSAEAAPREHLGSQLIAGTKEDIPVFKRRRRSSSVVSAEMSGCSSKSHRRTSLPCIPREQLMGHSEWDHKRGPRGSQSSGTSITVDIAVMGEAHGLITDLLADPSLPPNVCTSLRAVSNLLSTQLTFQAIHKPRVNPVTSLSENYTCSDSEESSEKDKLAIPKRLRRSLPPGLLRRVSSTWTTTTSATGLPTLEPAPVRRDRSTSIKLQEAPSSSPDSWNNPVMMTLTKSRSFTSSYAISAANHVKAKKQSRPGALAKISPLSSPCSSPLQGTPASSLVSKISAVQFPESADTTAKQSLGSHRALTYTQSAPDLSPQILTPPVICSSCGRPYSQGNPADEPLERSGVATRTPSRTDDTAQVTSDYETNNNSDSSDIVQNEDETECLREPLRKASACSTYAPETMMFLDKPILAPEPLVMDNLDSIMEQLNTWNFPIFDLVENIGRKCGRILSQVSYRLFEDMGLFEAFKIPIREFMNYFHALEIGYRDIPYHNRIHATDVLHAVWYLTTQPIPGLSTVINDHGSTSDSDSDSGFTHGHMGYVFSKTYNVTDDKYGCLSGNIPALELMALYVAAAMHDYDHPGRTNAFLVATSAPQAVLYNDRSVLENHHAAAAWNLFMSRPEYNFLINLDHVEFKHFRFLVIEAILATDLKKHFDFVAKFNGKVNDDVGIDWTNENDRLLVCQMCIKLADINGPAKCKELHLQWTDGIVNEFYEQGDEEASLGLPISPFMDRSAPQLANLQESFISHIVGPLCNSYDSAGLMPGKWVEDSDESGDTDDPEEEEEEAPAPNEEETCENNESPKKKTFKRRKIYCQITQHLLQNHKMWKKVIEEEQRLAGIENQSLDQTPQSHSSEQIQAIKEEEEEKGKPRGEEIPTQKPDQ
UniProt Q14123, whole entry: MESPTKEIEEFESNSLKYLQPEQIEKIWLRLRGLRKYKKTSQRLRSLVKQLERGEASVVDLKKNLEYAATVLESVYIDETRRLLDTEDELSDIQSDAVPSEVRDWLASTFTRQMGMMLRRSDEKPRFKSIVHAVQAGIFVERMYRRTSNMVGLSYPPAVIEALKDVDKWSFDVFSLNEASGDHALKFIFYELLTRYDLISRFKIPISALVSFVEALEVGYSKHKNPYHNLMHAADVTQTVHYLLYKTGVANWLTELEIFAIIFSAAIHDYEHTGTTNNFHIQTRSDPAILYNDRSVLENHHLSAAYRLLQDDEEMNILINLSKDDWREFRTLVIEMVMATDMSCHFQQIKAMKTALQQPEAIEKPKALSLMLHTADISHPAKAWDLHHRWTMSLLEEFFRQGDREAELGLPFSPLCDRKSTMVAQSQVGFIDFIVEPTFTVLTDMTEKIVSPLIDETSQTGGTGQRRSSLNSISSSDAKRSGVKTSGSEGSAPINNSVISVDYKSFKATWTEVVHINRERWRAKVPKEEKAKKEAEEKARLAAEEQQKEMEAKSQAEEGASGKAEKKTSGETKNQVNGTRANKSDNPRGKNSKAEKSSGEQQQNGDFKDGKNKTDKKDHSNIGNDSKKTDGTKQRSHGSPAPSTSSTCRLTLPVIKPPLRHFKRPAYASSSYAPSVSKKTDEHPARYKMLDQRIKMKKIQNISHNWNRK
UniProt O76083: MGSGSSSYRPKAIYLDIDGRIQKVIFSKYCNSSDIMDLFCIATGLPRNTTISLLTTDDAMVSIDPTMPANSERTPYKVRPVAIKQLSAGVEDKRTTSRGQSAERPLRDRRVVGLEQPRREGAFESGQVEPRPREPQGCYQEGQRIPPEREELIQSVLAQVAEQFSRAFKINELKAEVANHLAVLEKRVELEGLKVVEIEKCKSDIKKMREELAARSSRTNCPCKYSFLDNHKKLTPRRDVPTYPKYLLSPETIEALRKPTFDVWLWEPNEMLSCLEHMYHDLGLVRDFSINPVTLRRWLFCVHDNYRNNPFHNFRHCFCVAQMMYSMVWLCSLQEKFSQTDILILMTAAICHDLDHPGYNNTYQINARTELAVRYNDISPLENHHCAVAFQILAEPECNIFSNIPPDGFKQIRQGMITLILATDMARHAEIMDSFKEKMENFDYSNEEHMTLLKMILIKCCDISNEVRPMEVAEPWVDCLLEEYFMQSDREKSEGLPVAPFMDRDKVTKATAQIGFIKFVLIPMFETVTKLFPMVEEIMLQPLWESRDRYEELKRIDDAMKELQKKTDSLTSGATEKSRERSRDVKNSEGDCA
UniProt Q9HCR9: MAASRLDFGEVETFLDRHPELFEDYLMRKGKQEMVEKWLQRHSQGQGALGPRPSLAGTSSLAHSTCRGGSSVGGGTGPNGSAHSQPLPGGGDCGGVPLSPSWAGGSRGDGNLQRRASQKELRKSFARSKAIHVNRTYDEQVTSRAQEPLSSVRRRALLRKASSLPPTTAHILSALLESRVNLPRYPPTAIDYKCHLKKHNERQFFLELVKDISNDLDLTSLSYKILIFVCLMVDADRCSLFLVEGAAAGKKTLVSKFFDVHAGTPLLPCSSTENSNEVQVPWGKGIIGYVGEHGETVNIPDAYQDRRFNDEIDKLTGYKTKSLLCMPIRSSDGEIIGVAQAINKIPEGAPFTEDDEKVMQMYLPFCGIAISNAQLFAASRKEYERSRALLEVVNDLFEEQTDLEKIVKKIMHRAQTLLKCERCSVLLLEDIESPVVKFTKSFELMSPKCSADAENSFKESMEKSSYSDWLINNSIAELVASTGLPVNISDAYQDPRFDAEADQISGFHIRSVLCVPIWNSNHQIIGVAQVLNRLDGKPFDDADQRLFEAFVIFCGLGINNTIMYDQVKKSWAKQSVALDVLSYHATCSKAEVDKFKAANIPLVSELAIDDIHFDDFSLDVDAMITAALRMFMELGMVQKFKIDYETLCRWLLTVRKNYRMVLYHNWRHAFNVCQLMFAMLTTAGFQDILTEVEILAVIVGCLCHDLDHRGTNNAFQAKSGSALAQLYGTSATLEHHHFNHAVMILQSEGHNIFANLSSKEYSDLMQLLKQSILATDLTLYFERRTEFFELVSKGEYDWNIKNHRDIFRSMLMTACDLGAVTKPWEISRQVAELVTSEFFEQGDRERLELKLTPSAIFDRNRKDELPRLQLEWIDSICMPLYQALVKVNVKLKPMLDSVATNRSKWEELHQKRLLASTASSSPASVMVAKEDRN
UniProt Q13946: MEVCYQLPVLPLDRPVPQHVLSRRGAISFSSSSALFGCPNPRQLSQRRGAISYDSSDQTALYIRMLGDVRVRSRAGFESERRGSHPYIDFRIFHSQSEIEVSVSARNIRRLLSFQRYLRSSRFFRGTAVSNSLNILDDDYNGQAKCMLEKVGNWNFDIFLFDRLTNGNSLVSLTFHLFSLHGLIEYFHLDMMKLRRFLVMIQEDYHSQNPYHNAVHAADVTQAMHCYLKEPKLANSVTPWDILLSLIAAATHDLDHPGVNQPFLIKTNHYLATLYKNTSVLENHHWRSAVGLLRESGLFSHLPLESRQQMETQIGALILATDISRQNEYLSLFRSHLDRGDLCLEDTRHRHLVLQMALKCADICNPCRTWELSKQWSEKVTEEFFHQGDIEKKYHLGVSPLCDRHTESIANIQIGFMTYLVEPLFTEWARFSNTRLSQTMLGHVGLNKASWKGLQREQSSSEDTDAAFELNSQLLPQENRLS
UniProt O00408, whole entry: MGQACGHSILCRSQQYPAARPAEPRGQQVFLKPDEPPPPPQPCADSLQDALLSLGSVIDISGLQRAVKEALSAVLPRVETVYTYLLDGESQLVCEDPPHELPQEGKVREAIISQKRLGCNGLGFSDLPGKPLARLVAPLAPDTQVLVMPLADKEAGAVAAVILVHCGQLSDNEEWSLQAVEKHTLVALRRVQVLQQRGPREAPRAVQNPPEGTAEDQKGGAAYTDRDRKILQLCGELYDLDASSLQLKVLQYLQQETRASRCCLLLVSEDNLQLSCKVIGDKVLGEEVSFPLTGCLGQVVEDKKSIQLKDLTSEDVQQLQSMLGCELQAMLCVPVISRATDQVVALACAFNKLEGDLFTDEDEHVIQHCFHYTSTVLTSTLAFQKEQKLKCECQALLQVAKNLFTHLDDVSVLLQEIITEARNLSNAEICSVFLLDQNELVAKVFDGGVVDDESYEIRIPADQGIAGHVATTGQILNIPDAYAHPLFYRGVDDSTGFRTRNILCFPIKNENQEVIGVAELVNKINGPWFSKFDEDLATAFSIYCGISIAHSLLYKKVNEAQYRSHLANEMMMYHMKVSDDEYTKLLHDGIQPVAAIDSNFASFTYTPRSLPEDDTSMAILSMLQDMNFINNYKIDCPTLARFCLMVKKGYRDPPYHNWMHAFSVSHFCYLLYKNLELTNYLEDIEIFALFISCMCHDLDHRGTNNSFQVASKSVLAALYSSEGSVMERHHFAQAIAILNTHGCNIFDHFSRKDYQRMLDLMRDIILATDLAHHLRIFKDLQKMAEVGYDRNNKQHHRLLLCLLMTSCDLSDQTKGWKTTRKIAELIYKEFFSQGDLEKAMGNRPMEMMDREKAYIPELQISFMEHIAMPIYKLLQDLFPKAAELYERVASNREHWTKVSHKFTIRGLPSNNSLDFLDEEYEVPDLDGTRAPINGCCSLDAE

Tests used:
[1] = target: High affinity cAMP-specific and IBMX-insensitive 3',5'-cyclic phosphodiesterase 8A (Homo sapiens) (UniProt O60658); assay: Inhibition of PDE8A (unknown origin) using 3H-cAMP as substrate at 10 micromol/L relative to control; details: dose 10.0 µmol/L
[2] = target: cGMP-inhibited 3',5'-cyclic phosphodiesterase 3A (Homo sapiens, UniProt Q14432); assay: Inhibition of PDE3A (679 to 1087 residues) (unknown origin) using 3H-cAMP as substrate at 10 micromol/L relative to control; details: dose 10.0 µmol/L
[3] = target: Dual specificity calcium/calmodulin-dependent 3',5'-cyclic nucleotide phosphodiesterase 1C (Homo sapiens, UniProt Q14123); assay: Inhibition of PDE1C (147 to 531 residues) (unknown origin) using 3H-cGMP/3H-cAMP as substrate at 10 micromol/L relative to control; details: dose 10.0 µmol/L
[4] = target: High affinity cGMP-specific 3',5'-cyclic phosphodiesterase 9A (Homo sapiens, UniProt O76083); assay: Inhibition of recombinant PDE9A (unknown origin) using 3H-cGMP as substrate at 10 micromol/L relative to control; details: dose 10.0 µmol/L
[5] = target: Dual 3',5'-cyclic-AMP and -GMP phosphodiesterase 11A (Homo sapiens, UniProt Q9HCR9); assay: Inhibition of PDE11A (unknown origin) using 3H-cGMP/3H-cAMP as substrate at 10 micromol/L relative to control; details: dose 10.0 µmol/L
[6] = target: High affinity 3',5'-cyclic-AMP phosphodiesterase 7A (Homo sapiens, UniProt Q13946); assay: Inhibition of PDE7A (unknown origin) using 3H-cAMP as substrate at 10 micromol/L relative to control; details: dose 10.0 µmol/L
[7] = target: cGMP-specific 3',5'-cyclic phosphodiesterase (Homo sapiens, UniProt O76074); assay: Inhibition of PDE5A (unknown origin) using 3H-cGMP as substrate at 10 micromol/L relative to control; details: dose 10.0 µmol/L
[8] = target: cGMP-dependent 3',5'-cyclic phosphodiesterase (Homo sapiens, UniProt O00408); assay: Inhibition of PDE2A (580 to 919 residues) (unknown origin) using 3H-cGMP as substrate at 10 micromol/L relative to control; details: dose 10.0 µmol/L
[9] = test system: Rattus norvegicus; assay: Anti-pulmonary arterial hypertension in monocrotaline-induced pulmonary hypertension Sprague-Dawley rat model assessed as decrease in RVSP level at 5 mg/kg, po administered via gavage for 3 weeks and measured on day 22; format: functional, organism-based; details: time 22.0 day

Structure (SMILES) | inhibition [1] [%] | inhibition [2] [%] | inhibition [3] [%] | inhibition [4] [%] | inhibition [5] [%] | inhibition [6] [%] | inhibition [7] [%] | inhibition [8] [%] | Activity [9]
CCOC(=O)c1c(C2CN(c3cc(C(=O)NCCN(CC)CC)c4ccccc4n3)C2)nc2ccccn12 | < 50 | < 50 | < 50 | < 50 | < 50 | < 50 | < 50 | < 50 | 
Cn1cc(-c2ccncc2)c(-c2ccc(OCc3ccc4ccccc4n3)cc2)n1 |  |  |  |  |  |  |  |  | Active
CN1CC(=O)N2[C@H](c3ccc4c(c3)OCO4)c3[nH]c4ccccc4c3C[C@@H]2C1=O |  |  |  |  |  |  |  |  | Active

Active and inactive are the calls of the source. The rule behind the calls is not given here.
